Source: patent US20230322735A1, “AZETIDINYL TRYPTAMINES AND METHODS OF TREATING PSYCHIATRIC DISORDERS” (priority 2020, published 2023)

Amino acid sequences for entries named in this document (tags omitted).
UniProt P41595, whole entry: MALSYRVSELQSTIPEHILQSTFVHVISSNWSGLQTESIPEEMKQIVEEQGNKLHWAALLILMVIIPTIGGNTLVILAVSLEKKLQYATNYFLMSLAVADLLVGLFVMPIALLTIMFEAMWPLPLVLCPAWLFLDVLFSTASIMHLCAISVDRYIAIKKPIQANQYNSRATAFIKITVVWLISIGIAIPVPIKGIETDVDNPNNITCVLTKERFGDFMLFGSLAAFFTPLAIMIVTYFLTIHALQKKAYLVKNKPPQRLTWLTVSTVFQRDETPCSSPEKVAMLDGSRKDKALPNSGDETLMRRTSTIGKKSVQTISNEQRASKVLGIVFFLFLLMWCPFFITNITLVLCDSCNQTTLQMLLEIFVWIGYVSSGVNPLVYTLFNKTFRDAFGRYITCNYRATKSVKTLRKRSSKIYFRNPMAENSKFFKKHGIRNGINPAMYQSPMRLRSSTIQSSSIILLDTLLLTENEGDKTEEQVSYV

Biological target: T1, 5-HT2B receptor (Homo sapiens, UniProt P41595)
T1 construct: host or cells: HEK293
Assay: FLIPR Ca2+ flux agonist assay at 5-HT2B (HEK293)
Assay type: cell-based

`CN(C)CCc1c[nH]c2cccc(O)c12` [Psilocin, psilocin, reference compound] was tested. Which EC50 did it give?
The EC50 was greater than 31.6 µM.
